From patent US20220143224A1, “MRI CONTRAST AGENT FOR USE IN THE DIAGNOSIS OF EARLY CHANGES IN THE ENDOTHELIUM OF BLOOD VESSELS” (UNIWERSYTET JAGIELLONSKI, priority 2019, published 2022)

Tested on: endothelial permeability in brachiocephalic artery (BCA) in ApoE/LDLR−/− mice
Test: In vivo MRI assessment of endothelial permeability (Npx50) in brachiocephalic artery
Settings: 28-week-old ApoE/LDLR−/− mice, T1 before and 30 min after iv CA
Protocol: The experiments were performed using female ApoE/LDLR−/− mice of different ages: 4-, 6-, 8-, 12- and 28-week-old(19) in comparison to control young (8-week-old) mice (C57BL/6) without endothelial dysfunction. All mice (body weight 20-30 g) were housed under standard pathogen-free conditions (LD: 12/12, humidity: 60%, temperature: 23° C.).
MRI experiments were carried out using a 9.4 T scanner (BioSpec 94/20 USR, Bruker, Germany). During the experiment, mice were anesthetized using isoflurane (Aerrane, Baxter Sp. z o.o., Poland, 1.5% by volume) in an oxygen and air mixture (1:2). Cardiac activity, respiration rate and body temperature (maintained at 37° C., using circulating warm water) were monitored using Monitoring and Gating System (SA Inc., Stony Brook, N.Y., USA). […]
Endothelial permeability measurements were performed using two gadolinium contrast agents (CA); reference gadolinium albumin binding contrast agent (Galbumin, BioPAL, Worcester, Mass., USA—25 mg/mL, 4.5 mL/kg, iv) and new preparation according to the invention—Gd-diethylenetriaminepentaacetate-bis(methylamide) placed inside liposomes. Relaxation time (T1) before and 30 min after intravenous CA administration was measured to assess BCA permeability using the VFA technique(20), by sampling the signal using varying values of flip angles (FA), and then fitting the result to the expected T1-dependent signal model(21). […]

GD albumin: reference gadolinium albumin binding contrast agent (Galbumin, BioPAL, Worcester, Mass., USA)
Npx50 increase: about 100%
